Molecular target: Poly [ADP-ribose] polymerase 1 (Homo sapiens, UniProt P09874)

The chains behind the UniProt entries cited, without tags or fusion partners.
UniProt P09874, whole entry: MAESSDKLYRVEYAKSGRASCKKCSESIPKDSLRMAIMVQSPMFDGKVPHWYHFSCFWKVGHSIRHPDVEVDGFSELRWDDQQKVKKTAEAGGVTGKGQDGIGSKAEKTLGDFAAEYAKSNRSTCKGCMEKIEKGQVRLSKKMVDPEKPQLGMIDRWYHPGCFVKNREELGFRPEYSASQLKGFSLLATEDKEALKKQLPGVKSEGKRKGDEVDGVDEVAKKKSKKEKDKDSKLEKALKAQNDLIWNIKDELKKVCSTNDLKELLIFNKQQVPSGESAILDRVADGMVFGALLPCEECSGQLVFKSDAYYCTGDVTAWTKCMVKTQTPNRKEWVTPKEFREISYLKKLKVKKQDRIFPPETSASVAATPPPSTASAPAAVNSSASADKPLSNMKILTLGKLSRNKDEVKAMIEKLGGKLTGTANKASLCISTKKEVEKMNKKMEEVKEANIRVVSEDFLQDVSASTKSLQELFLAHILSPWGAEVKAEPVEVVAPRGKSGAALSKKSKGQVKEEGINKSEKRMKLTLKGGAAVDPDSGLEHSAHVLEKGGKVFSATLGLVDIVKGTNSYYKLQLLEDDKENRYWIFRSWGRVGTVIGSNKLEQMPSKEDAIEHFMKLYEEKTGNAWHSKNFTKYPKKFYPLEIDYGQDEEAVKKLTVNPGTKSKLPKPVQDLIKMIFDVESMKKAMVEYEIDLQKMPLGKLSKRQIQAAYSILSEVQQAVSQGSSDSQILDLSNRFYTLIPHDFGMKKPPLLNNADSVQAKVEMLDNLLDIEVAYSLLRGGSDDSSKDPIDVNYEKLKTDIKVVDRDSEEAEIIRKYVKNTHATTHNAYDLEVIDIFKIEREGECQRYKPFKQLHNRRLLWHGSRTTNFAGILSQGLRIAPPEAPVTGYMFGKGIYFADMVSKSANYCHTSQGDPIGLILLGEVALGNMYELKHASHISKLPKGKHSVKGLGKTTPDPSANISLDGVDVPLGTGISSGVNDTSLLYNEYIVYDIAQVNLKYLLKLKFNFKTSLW

Compound COc1cccc(-c2nc3c(C(N)=O)cccc3[nH]2)c1 has a Ki of 6 nM.

From ChEMBL document CHEMBL1132951, “Resistance-modifying agents. 9. Synthesis and biological properties of benzimidazole inhibitors of the DNA repair enzyme poly(ADP-ribose) polymerase” (J Med Chem, 2000)
